Measurements reported in PMC11310081, “Deep-learning-enabled antibiotic discovery through molecular de-extinction” (Nature Biomedical Engineering, 2024).
Converted amounts (≈) assume the structure as drawn.

Legend:
[1] = tested on: A. baumannii ATCC 19606; assay: Skin abscess infection mouse model; format: in vivo, CD-1 mice; conditions: for bacterial count, skin abscess (Panel 6b): CD-1 mice
Protocol: A. baumannii ATCC 19606 cells were grown in LB medium to an OD600 = 0.5. Cells were washed twice with sterile phosphate-buffered saline (PBS) (pH 7.4, 13,000 r.p.m. for 2 min) and resuspended to a final concentration of 10^6 (A. baumannii cells) colony-forming units per millilitre (c.f.u. ml^−1). Six-week-old female CD-1 mice from Charles River (stock number 18679700-022) were anaesthetized with isoflurane, and their backs were sterilized and shaved. A superficial linear skin abrasion was made with a needle to damage the stratum corneum and upper layer of the epidermis. An aliquot of 20 μl containing the bacterial load resuspended in PBS was inoculated over the scratched area. Two hours after the infection, peptides diluted in water at their MIC value were administered to the infected area, and the untreated mice were inoculated with the same volume of deionized water. Mice were euthanized, and the area of scarified skin was excised 2 days and 4 days post infection, homogenized using a bead beater for 20 min (25 Hz) and then serially diluted tenfold for quantification of colony-forming units. This quantitative method was used as it has been established to accurately reflect the number of bacteria present in a given infected area. MacConkey agar plates were used as A. baumannii colonies appear purple in this medium and can easily be distinguished from other strains. The experiments were performed with six mice per group. All experiments were performed blindly, and no animal subjects were excluded from the analysis. The skin abscess infection mouse model was approved by the University Laboratory Animal Resources from the University of Pennsylvania (protocol 806763). Statistical significance was determined using one-way analysis of variance (ANOVA) followed by Dunnett’s test in log10-transformed data to mitigate the effect of outliers; P values are presented for each group, with all groups being compared to the untreated control group.

[2] = tested on: P. aeruginosa PA14; format: cell-based, Pseudomonas aeruginosa; conditions: PA14, 20 h
Source text: (§1) The following Gram-negative bacteria were used in our study: A. baumannii ATCC 19606, E. coli ATCC 11775, E. coli AIC221 (E. coli MG1655 phnE_2::FRT), E. coli AIC222 (E. coli MG1655 pmrA53 phnE_2::FRT (colistin resistant)), K. pneumoniae ATCC 13883, P. aeruginosa PAO1 and P. aeruginosa PA14. The following Gram-positive bacteria were also used in our study: S. aureus ATCC 12600, S. aureus ATCC BAA-1556 (methicillin-resistant strain), E. faecalis ATCC 700802 (vancomycin-resistant strain) and E. faecium ATCC 700221 (vancomycin-resistant strain). Bacteria were grown from frozen stocks and plated on Luria–Bertani (LB) or Pseudomonas isolation agar plates (P. aeruginosa strains) and incubated overnight at 37 °C. After the incubation period, a single colony was transferred to 5 ml of LB medium, and cultures were incubated overnight (16 h) at 37 °C. The following day, an inoculum was prepared by diluting the overnight cultures 1:100 in 5 ml of the respective media and incubating them at 37 °C until bacteria reached logarithmic phase (OD600 = 0.3–0.5).
(§2) The in vitro antimicrobial activity of the peptides was assessed by using the broth microdilution assay. […] Aqueous solutions of the peptides were added to the plate at concentrations ranging from 1 to 64 μmol l^−1. […] The optical density of the plates was measured at 600 nm using a spectrophotometer. […]

[3] = tested on: E. faecium ATCC 700221 (vancomycin-resistant strain); format: cell-based, Enterococcus faecium; conditions: ATCC 700221, 20 h
Source text: as §1, §2

CC[C@H](C)[C@H](NC(=O)[C@H](CC(N)=O)NC(=O)[C@H](CCCCN)NC(=O)[C@H](CCCNC(=N)N)NC(=O)[C@H](Cc1ccccc1)NC(=O)[C@@H](NC(=O)[C@H](CC(C)C)NC(=O)[C@H](CCCNC(=N)N)NC(=O)[C@H](CCCNC(=N)N)NC(=O)CNC(=O)[C@H](CCCNC(=N)N)NC(=O)[C@H](C)NC(=O)[C@H](CCCNC(=N)N)NC(=O)[C@@H](NC(=O)[C@H](CC(C)C)NC(=O)[C@H](CO)NC(=O)[C@H](Cc1ccc(O)cc1)NC(=O)[C@@H](NC(=O)[C@H](CCCNC(=N)N)NC(=O)[C@H](CS)NC(=O)[C@H](Cc1ccc(O)cc1)NC(=O)[C@@H](N)CC(C)C)[C@@H](C)CC)C(C)C)[C@@H](C)O)C(=O)N[C@@H](CO)C(=O)N[C@@H](CCCCN)C(=O)O [Hydrodamin-1]
bacterial count, skin abscess (Panel 6b) ([1]; A. baumannii ATCC 19606, day 2, replicate 1): 4e+007 | bacterial count, skin abscess (Panel 6b) ([1]; A. baumannii ATCC 19606, day 2, replicate 2): 2e+007 | bacterial count, skin abscess (Panel 6b) ([1]; A. baumannii ATCC 19606, day 2, replicate 3): 1e+009 | bacterial count, skin abscess (Panel 6b) ([1]; A. baumannii ATCC 19606, day 2, replicate 4): 1e+009 | bacterial count, skin abscess (Panel 6b) ([1]; A. baumannii ATCC 19606, day 2, replicate 5): 4e+008 | bacterial count, skin abscess (Panel 6b) ([1]; A. baumannii ATCC 19606, day 2, replicate 6): 4e+008 | bacterial count, skin abscess (Panel 6b) ([1]; A. baumannii ATCC 19606, day 4, replicate 1): 800000 | bacterial count, skin abscess (Panel 6b) ([1]; A. baumannii ATCC 19606, day 4, replicate 2): 800000 | bacterial count, skin abscess (Panel 6b) ([1]; A. baumannii ATCC 19606, day 4, replicate 3): 1400000 | bacterial count, skin abscess (Panel 6b) ([1]; A. baumannii ATCC 19606, day 4, replicate 4): 600000 | bacterial count, skin abscess (Panel 6b) ([1]; A. baumannii ATCC 19606, day 4, replicate 5): 200000 | bacterial count, skin abscess (Panel 6b) ([1]; A. baumannii ATCC 19606, day 4, replicate 6): 200000 | Anti-infective activity in skin abscess model, in words ([1]; single dose at MIC, compared with untreated control and polymyxin B, n = 6): inhibited the proliferation of the infection for up to 4 days after treatment | Reduction of bacterial load, 2 days ([1]; skin abscess, mice, single dose at MIC over infected area 2 h after infection, 2 days post infection, n = 6): not active during the first 2 days post infection | Reduction of bacterial load, 4 days ([1]; skin abscess, mice, single dose at MIC over infected area, 4 days post infection, n = 6): showed activity by day 4 | Minimal inhibitory concentration, P. aeruginosa PA14 [2]: 16 µM (≈ 47.5 µg/mL) | Minimal inhibitory concentration, E. faecium ATCC700221-VRE [3]: 4 µM (≈ 11.9 µg/mL)
